# Results as given in ChEMBL document CHEMBL2218924, “A broad activity screen in support of a chemogenomic map for kinase signalling research and drug discovery” (Biochem J, 2013).
# The chains behind the UniProt entries cited, without tags or fusion partners. Where a name states a change or a piece, a line headed by the entry shows the natural chain unless it says otherwise.
# UniProt P54764, whole entry: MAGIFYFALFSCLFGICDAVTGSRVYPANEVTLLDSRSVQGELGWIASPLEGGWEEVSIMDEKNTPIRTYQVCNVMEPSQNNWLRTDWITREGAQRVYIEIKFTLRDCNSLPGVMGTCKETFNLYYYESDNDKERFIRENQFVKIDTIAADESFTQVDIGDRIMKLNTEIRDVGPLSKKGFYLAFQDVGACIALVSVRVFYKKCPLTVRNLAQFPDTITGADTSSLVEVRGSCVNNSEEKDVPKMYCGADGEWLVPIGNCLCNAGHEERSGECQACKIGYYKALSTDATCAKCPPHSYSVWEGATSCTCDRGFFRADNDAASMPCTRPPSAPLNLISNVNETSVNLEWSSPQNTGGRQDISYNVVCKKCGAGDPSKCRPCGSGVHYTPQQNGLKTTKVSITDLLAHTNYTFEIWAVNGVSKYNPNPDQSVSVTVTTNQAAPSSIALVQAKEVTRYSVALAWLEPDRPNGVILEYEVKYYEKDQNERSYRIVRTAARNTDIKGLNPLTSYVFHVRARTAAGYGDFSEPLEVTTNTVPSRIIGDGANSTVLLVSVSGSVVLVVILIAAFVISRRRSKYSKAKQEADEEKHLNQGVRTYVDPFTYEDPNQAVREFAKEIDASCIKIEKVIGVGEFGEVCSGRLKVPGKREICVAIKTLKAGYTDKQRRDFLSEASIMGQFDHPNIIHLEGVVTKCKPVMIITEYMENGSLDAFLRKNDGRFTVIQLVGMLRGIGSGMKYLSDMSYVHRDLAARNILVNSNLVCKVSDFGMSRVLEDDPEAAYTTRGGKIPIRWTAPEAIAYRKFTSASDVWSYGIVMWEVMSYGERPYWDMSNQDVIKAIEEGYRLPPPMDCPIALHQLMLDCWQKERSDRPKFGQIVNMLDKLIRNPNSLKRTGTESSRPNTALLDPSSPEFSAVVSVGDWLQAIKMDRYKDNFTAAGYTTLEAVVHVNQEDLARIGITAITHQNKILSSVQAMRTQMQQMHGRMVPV
# UniProt P54753: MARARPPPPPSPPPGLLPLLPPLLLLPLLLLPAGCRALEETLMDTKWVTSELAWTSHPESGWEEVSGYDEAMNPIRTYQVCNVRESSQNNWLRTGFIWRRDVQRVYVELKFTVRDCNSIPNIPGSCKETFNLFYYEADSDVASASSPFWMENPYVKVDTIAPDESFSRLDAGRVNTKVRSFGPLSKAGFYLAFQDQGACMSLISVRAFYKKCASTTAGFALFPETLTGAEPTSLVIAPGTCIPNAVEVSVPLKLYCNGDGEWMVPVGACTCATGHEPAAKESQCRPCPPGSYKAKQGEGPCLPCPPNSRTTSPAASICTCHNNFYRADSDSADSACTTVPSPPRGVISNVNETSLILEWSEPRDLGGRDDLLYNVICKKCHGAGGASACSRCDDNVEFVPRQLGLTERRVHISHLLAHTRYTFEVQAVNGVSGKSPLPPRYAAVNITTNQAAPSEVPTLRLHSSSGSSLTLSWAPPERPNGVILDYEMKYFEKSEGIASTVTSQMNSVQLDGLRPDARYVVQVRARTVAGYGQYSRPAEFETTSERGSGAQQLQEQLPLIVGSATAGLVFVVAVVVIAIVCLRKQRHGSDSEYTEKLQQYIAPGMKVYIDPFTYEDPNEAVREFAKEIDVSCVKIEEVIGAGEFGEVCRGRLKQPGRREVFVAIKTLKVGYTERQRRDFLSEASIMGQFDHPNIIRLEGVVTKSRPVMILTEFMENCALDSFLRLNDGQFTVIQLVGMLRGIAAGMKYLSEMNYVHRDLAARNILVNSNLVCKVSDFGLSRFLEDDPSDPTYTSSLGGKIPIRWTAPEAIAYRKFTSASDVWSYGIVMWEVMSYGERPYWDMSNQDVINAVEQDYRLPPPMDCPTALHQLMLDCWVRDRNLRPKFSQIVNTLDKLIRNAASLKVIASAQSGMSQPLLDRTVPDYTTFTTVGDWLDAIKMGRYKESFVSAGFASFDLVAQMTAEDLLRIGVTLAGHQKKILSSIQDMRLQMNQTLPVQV
# UniProt P28482, whole entry: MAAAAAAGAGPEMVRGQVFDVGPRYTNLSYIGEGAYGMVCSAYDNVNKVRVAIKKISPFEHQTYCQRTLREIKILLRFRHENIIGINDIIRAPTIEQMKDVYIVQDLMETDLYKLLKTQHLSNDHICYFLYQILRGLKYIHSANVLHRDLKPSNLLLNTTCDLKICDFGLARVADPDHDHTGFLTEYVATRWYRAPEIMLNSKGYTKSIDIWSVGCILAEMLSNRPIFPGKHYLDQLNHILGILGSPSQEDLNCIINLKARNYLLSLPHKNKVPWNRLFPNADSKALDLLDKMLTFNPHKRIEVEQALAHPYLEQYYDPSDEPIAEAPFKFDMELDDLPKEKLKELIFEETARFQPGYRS
# UniProt Q13188: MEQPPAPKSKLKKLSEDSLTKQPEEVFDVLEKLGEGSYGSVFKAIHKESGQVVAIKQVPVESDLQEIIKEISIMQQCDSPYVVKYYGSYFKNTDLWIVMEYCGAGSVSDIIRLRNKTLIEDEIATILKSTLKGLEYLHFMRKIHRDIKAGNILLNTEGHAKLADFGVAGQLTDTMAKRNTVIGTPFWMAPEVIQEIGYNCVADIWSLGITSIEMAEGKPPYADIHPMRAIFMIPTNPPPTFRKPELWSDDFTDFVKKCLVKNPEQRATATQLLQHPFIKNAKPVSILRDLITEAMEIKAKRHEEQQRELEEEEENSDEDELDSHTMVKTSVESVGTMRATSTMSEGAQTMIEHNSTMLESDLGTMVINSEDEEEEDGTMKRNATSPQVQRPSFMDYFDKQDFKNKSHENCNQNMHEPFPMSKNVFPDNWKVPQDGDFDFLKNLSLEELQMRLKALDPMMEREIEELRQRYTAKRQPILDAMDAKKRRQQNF
# UniProt P16234: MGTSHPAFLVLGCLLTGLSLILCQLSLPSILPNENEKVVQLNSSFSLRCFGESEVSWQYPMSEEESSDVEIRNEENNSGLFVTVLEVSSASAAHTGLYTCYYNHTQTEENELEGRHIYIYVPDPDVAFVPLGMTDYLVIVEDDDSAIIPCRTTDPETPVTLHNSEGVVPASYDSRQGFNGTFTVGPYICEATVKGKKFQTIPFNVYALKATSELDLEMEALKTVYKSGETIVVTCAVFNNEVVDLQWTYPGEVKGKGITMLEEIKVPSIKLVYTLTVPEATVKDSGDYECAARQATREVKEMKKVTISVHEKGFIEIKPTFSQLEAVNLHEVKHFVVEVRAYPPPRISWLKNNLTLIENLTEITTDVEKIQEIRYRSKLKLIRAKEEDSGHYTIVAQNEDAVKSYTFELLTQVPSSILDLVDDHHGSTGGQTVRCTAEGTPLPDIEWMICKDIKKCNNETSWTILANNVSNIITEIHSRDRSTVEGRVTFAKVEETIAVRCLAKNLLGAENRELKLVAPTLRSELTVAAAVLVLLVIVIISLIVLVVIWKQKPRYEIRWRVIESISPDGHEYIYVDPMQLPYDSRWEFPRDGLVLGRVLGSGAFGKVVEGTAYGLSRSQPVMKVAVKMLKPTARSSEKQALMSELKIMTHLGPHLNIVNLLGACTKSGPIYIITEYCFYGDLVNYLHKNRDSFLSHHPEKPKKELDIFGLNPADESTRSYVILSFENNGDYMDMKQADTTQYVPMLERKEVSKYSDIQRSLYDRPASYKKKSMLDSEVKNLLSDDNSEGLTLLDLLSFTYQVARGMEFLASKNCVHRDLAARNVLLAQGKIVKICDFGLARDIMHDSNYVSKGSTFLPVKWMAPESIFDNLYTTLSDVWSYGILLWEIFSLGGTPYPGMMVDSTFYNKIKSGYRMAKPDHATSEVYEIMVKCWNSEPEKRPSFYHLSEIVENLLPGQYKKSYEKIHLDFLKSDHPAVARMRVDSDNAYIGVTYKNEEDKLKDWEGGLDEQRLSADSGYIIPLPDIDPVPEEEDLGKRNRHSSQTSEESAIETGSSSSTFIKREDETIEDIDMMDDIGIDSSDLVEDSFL
# UniProt P24864, whole entry, looked up: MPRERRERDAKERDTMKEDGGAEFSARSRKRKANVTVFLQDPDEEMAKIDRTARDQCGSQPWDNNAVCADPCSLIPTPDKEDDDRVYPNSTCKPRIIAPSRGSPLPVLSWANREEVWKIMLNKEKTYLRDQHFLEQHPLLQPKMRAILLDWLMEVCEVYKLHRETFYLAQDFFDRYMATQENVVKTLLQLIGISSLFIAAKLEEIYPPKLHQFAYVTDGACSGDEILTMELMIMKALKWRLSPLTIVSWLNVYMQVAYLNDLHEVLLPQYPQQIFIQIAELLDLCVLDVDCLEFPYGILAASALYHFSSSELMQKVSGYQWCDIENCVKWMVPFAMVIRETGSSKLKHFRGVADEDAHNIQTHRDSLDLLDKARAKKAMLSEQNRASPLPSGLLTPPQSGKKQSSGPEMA
# UniProt O96020, whole entry, looked up: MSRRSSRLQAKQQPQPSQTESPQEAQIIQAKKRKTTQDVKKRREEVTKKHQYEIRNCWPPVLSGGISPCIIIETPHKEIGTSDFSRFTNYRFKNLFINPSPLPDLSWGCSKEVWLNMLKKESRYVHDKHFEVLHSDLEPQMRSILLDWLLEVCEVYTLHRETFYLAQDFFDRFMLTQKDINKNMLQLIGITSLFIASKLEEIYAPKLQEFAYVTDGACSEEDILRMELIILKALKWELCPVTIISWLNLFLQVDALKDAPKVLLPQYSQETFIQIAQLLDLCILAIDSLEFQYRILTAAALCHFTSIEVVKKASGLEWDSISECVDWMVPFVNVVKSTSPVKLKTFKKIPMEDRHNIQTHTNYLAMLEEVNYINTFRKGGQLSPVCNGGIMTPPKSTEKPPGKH
# UniProt Q14289, whole entry, looked up: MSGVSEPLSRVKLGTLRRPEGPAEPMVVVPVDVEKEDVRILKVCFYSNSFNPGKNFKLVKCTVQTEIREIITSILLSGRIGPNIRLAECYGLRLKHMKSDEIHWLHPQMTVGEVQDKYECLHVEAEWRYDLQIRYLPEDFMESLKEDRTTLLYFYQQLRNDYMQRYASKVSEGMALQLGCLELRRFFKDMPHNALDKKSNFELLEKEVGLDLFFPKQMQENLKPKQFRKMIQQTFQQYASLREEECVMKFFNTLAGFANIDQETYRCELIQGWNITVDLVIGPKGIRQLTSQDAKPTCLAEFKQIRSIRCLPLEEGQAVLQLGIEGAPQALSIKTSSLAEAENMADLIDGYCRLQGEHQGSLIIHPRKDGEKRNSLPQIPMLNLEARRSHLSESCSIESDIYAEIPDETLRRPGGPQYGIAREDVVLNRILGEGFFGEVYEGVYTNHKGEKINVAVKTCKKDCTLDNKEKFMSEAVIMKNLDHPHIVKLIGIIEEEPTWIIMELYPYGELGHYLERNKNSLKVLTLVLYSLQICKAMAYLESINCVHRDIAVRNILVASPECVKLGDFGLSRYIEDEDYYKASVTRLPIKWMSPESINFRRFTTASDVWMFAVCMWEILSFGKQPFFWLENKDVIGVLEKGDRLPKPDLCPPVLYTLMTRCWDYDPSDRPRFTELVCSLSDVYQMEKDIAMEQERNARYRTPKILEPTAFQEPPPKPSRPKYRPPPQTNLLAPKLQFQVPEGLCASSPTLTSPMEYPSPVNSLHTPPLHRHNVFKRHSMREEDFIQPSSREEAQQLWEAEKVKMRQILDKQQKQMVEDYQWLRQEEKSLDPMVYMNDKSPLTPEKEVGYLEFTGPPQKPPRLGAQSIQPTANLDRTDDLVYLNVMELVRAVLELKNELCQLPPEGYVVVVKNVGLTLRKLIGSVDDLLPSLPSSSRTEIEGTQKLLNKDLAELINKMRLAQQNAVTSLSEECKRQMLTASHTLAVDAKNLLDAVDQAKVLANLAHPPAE
# UniProt P49761: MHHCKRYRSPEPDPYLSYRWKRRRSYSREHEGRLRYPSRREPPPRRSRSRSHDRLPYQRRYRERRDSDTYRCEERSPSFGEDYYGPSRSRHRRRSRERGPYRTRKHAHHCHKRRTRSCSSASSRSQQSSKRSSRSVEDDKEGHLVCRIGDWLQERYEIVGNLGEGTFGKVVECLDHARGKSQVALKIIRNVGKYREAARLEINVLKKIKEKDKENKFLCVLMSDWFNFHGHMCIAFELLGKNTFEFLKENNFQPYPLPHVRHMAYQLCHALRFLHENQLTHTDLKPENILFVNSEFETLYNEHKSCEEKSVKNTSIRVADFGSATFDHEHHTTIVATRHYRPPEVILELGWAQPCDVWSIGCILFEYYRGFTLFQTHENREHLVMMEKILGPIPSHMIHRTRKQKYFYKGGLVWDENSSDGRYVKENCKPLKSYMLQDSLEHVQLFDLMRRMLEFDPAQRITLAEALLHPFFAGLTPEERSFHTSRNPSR
# For part of these data: What follows is the remainder of the data, with few or none of the strong results. Only a part is listed here, and it is no random draw.
# Tests used:
# [1] = molecular target: Protein-tyrosine kinase 6 (Homo sapiens) (UniProt Q13882); settings: at 10 µM
# [2] = molecular target: Ephrin type-A receptor 4 (Homo sapiens) (UniProt P54764); settings: at 10 µM
# [3] = molecular target: Ephrin type-B receptor 3 (Homo sapiens) (UniProt P54753); settings: at 10 µM
# [4] = molecular target: G protein-coupled receptor kinase 6 (Homo sapiens) (UniProt P43250); settings: at 10 µM
# [5] = molecular target: T1, Macrophage-stimulating protein receptor (Homo sapiens) (UniProt Q04912); settings: at 1 µM
# T1 sequence (whole entry): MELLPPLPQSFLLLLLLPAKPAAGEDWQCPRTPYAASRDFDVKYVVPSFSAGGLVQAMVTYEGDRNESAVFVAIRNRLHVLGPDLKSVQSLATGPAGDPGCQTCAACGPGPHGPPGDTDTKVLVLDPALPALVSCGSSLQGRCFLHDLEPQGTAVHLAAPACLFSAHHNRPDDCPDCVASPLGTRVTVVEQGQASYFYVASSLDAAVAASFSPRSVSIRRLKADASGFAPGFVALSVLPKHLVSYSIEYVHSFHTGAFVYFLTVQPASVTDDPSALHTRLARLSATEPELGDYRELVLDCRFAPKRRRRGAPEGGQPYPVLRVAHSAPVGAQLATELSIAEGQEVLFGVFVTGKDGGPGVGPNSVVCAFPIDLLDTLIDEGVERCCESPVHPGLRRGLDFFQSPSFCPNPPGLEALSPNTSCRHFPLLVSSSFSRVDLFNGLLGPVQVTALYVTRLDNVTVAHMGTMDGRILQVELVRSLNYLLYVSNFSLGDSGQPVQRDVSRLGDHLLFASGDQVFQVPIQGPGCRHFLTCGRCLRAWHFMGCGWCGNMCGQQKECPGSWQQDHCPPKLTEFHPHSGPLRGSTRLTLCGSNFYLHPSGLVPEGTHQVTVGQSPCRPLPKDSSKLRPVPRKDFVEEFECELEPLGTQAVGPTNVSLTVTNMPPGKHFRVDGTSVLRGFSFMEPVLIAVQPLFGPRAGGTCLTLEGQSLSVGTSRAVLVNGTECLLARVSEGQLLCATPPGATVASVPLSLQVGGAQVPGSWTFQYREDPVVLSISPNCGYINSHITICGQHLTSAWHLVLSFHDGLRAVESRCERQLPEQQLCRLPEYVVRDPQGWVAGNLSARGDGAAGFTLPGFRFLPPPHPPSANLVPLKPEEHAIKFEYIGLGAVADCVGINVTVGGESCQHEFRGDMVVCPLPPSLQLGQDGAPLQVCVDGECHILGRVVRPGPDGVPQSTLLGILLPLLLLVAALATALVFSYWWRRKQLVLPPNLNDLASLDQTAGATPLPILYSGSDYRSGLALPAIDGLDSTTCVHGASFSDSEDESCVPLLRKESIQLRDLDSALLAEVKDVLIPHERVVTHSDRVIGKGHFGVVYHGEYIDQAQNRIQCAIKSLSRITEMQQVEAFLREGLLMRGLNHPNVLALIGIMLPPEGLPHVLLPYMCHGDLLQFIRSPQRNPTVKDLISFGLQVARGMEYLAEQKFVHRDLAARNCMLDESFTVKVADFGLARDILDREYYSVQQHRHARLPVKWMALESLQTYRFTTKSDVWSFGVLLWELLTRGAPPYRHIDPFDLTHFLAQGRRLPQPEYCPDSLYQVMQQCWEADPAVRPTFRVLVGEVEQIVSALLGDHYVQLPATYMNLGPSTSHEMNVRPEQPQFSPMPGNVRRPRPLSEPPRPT
# [6] = molecular target: T1, Macrophage-stimulating protein receptor (Homo sapiens); settings: at 10 µM
# [7] = molecular target: Tyrosine-protein kinase Lck (Homo sapiens) (UniProt P06239); settings: at 1 µM
# [8] = molecular target: Mitogen-activated protein kinase 1 (Homo sapiens) (UniProt P28482); settings: at 1 µM
# [9] = molecular target: Serine/threonine-protein kinase 3 (Homo sapiens) (UniProt Q13188); settings: at 10 µM
# [10] = molecular target: Serine/threonine-protein kinase tousled-like 2 (Homo sapiens) (UniProt Q86UE8); settings: at 10 µM
# [11] = molecular target: BDNF/NT-3 growth factors receptor (Homo sapiens) (UniProt Q16620); settings: at 1 µM
# [12] = molecular target: T2, Serine/threonine-protein kinase ULK2 (Homo sapiens) (UniProt Q8IYT8); settings: at 1 µM
# T2 sequence (whole entry): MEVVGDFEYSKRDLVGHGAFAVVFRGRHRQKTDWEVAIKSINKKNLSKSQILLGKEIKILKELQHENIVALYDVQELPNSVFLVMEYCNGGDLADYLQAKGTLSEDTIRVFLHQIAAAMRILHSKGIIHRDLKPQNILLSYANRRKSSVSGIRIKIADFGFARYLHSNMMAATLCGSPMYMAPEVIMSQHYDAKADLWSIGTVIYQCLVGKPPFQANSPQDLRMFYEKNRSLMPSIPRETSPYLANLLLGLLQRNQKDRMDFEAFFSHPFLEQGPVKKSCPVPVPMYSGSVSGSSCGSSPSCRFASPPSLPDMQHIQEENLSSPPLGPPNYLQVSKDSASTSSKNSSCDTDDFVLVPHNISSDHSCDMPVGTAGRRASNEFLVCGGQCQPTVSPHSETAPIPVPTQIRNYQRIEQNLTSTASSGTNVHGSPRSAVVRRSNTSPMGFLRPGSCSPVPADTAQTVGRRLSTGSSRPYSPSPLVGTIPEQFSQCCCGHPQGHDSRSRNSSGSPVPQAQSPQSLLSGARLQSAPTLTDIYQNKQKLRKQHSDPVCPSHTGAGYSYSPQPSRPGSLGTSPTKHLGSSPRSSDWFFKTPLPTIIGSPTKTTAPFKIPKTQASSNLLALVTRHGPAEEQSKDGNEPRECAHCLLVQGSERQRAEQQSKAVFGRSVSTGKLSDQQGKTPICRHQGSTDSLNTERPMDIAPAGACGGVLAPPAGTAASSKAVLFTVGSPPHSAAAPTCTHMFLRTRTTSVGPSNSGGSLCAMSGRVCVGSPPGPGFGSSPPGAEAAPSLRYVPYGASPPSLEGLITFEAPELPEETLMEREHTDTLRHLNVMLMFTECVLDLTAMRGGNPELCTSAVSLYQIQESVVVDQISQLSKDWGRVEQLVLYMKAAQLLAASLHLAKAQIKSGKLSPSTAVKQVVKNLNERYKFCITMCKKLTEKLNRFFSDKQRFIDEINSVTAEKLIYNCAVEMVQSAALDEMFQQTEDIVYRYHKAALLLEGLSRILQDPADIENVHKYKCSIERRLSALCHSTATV
# [13] = molecular target: Proto-oncogene tyrosine-protein kinase Src (Homo sapiens) (UniProt P12931); settings: at 1 µM
# [14] = molecular target: T3, Serine/threonine-protein kinase NLK (Homo sapiens) (UniProt Q9UBE8); settings: at 1 µM
# T3 sequence (whole entry): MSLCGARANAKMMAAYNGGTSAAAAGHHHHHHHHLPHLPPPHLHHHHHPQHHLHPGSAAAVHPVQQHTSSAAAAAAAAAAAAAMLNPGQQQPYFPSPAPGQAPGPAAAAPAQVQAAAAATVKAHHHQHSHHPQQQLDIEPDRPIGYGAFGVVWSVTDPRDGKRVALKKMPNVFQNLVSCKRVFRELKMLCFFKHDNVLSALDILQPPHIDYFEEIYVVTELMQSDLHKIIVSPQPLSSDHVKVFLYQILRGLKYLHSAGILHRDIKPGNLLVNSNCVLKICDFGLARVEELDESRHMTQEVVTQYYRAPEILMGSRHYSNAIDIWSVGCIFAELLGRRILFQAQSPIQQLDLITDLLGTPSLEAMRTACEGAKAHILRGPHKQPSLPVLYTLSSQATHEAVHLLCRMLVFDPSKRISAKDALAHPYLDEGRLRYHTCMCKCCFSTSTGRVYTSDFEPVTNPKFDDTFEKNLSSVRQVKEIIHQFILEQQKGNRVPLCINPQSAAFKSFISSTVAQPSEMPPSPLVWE
# [15] = molecular target: Serine/threonine-protein kinase PAK 5 (Homo sapiens) (UniProt Q9P286); settings: at 10 µM
# [16] = molecular target: Serine/threonine-protein kinase PAK 6 (Homo sapiens) (UniProt Q9NQU5); settings: at 10 µM
# [17] = molecular target: Platelet-derived growth factor receptor alpha (Homo sapiens) (UniProt P16234); settings: at 1 µM
# [18] = molecular target: Platelet-derived growth factor receptor alpha (Homo sapiens) (UniProt P16234); settings: at 10 µM
# [19] = molecular target: Cyclin-dependent kinase 2/cyclin E (Homo sapiens) (UniProt P24864+P24941+O96020); settings: at 1 µM
# [20] = molecular target: Protein-tyrosine kinase 2-beta (Homo sapiens) (UniProt Q14289); settings: at 10 µM
# [21] = molecular target: Tyrosine-protein kinase ABL1 (Homo sapiens) (UniProt P00519); settings: at 10 µM
# [22] = molecular target: Cyclin-dependent kinase 2/cyclin A (Homo sapiens) (UniProt P24941+P20248+P78396); settings: at 10 µM
# [23] = molecular target: Fibroblast growth factor receptor 2 (Homo sapiens) (UniProt P21802); settings: at 10 µM
# [24] = molecular target: T4, Phosphorylase b kinase gamma catalytic chain, liver/testis isoform (Homo sapiens) (UniProt P15735); settings: at 1 µM
# T4 sequence (whole entry): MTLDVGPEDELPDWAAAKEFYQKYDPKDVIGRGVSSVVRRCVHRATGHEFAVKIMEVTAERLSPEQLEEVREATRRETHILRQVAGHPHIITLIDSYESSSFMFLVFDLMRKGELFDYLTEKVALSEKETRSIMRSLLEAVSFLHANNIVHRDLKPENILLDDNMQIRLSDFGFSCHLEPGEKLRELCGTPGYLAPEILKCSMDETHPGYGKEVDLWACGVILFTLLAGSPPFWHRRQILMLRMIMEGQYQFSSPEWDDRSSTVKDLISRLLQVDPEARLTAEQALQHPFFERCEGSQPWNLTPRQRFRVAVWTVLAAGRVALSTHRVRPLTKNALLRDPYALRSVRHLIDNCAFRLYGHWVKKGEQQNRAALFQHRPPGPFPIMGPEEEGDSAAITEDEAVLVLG
# [25] = molecular target: Dual specificity protein kinase CLK3 (Homo sapiens) (UniProt P49761); settings: at 1 µM
# [26] = molecular target: T5, Activin receptor type-1B (Homo sapiens) (UniProt P36896); settings: at 1 µM
# T5 sequence (whole entry): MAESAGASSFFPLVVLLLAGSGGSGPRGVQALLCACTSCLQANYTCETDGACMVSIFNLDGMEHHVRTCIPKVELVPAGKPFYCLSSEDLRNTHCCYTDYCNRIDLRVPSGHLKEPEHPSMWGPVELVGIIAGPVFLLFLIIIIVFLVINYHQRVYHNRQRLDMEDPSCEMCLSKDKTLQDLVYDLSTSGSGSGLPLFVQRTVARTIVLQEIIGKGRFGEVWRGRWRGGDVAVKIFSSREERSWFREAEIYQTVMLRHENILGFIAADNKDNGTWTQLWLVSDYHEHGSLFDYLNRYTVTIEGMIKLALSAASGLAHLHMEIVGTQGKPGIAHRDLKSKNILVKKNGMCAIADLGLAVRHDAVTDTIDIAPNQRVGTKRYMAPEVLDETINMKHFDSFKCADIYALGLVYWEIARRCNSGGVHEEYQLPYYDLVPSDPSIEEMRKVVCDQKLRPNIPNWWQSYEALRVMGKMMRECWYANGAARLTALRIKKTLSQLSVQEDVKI
structure (smiles),measurement,setting,value
Cn1nc2c3c(cccc31)C(=O)c1ccccc1-2,residual activity,[1],115%
same,residual activity,[2],116%
same,residual activity,[3],114%
same,residual activity,[4],78%
same,residual activity,[5],82%
same,residual activity,[6],78%
same,residual activity,[7],78%
same,residual activity,[8],109%
same,residual activity,[9],78%
same,residual activity,[10],78%
same,residual activity,[11],78%
same,residual activity,[12],116%
same,residual activity,[13],114%
same,residual activity,[14],99%
same,residual activity,[15],78%
same,residual activity,[16],78%
same,residual activity,[17],113%
same,residual activity,[18],113%
CC#CC(=O)Nc1cc2c(Nc3ccc(F)c(Cl)c3)ncnc2cn1,residual activity,[19],102%
same,residual activity,[20],92%
Cc1cc(Nc2nc(-c3ccccc3)nc3ccccc23)n[nH]1,residual activity,[21],15%
N#C/C(=C(\N)Sc1ccc(N)cc1)c1ccccc1C(F)(F)F,residual activity,[22],81%
same,residual activity,[23],82%
same,residual activity,[24],113%
CC(=O)c1ccc(N2CCOCC2)cc1O,residual activity,[25],85%
Oc1n[nH]c2nnc(-c3c(-c4ccccc4)nn4ccccc34)cc12,residual activity,[21],61%
same,residual activity,[26],110%
